# From patent US8124087B2, “Methods of controlling bone loss by inhibiting DKK1” (Board of Trustees of the University of Arkansas, priority 2002, dated 2012)
# B1: BMP-2: bone morphogenic protein-2, induces osteoblast differentiation of C2C12 (protein, UniProt P12643 283-396, looked up)
# Bone morphogenetic protein 2: QAKHKQRKRLKSSCKRHPLYVDFSDVGWNDWIVAPPGYHAFYCHGECPFPLADHLNSTNHAIVQTLVNSVNSKIPKACCVPTELSAISMLYLDENEKVVLKNYQDMVVEGCGCR
# Experiments:
# C2C12 cells [1] = test: Osteoblast differentiation assay (alkaline phosphatase), 5 days; assay type: cell-based, mouse; settings: 50 ng/ml for 5 days
# Protocol: C2C12 mesenchymal precursor cells (American Type Tissue Culture, Reston, Va.) were cultured in DMEM (Invitrogen, Carlsbad, Calif.) supplemented with 10 percent heat-inactivated fetal calf serum. Alkaline phosphatase activity in C2C12 cells was measured as described (Gallea, et al., 2001; Spinella-Jaegle, et al., 2001). Cell lysates were analyzed for protein content using the micro-BCA assay kit (Pierce, Rockford, Ill.).
# Bone morphogenic protein-2 can induce differentiation of the uncommitted mesenchymal progenitor cell line C2C12 (Katagiri, et al., 1994) into osteoblasts through a mechanism that involves Wnt/b-catenin signaling (Bain, et al., 2003; Roman-Roman, et al., 2002). Alkaline phosphatase, a specific marker of osteoblast differentiation, was undetectable in C2C12 cells grown in 5 percent fetal calf serum for 5 days (FIG. 41A). […] This in vitro effect on alkaline phosphatase production was neutralized by a polyclonal anti-DKK1 antibody, but not by a non-specific polyclonal goat IgG. Bone marrow serum with a DKK1 concentration>12 ng/ml from five patients with myeloma inhibited the production of alkaline phosphatase by C2C12 cells treated with BMP-2, and this effect was reversed by the anti-DKK1 antibody, but not by non-specific IgG (FIG. 41B). […]
# C2C12 cells [2] = test: Alkaline phosphatase (ALP) assay, BMP-2-induced differentiation; assay type: cell-based, mouse; settings: 72 hrs, DMEM with 2% horse serum
# Protocol: Cells were cultured in DMEM with 2% horse serum including either BMP-2 (200 ng/ml), Wnt3a CM, BPM-2 plus Dkk1, or BMP-2 plus Wnt3a CM for 72 or 96 hr followed by lysis in 150 ml of lysis buffer (20 mM Tris HCl, pH 8 and 150 mM NaCl, 0.2% NP40). ALP activity was measured using ALP kit (Diagnostic Chemical Limited, Exton, Pa.) according to manufacturer instructions. Absorbance The of samples was determined with a Spectra Max340 Microplate Spectrophotometer (Molecular Devices, Sunnyvale, Calif.) at 402 nm. Cell lysates were analyzed for protein content with using the micro-BCA assay kit (Pierce, Rockford, Ill.).
# Chemical synthesis of siRNA specific to LRP5/6, GFP, and control siRNA were purchased from Qiagen (Valencia, Calif.). The siRNA were transiently transfected into C2C12 using Lipofectamine according to manufacturer instructions (Invitrogen). RNA was isolated after 24, 48 or 72 hours then subjected to RT-PCR or qPCR for determination of efficacy of target gene silencing.
molecule,measurement,setting,value
B1,alkaline phosphatase production,C2C12 cells [1],induced them to produce alkaline phosphatase
same,"ALP activity, factor alone",C2C12 cells [2],increased ALP activity
